Measurements from paper PMC10332445 (Journal of medicinal chemistry, 2023).

By UniProt entry, the sequences of proteins in these tests, tags left out. Where a name states a change or a piece, a line headed by the entry shows the natural chain unless it says otherwise.
UniProt Q96SW2: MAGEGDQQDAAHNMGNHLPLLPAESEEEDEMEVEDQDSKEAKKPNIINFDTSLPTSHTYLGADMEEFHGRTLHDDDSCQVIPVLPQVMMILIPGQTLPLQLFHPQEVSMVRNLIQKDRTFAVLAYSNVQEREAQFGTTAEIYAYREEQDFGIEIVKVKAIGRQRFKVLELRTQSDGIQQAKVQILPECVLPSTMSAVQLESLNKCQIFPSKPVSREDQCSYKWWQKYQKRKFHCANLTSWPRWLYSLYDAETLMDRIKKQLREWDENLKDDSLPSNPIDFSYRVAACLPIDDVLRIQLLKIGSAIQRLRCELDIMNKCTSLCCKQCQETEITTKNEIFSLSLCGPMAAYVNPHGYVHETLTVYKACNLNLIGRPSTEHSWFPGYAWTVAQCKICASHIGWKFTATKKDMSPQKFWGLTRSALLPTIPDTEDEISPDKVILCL

Molecular target: CRBN (Homo sapiens, UniProt Q96SW2)
Assay: NanoBRET live-cell target engagement of CRBN in HEK293 cells
Format: cell-based
Details: number in parentheses, 37 °C

## Nc1cccc2c1C(=O)N(C1CCC(=O)NC1=O)C2=O (stereo not shown) [Pomalidomide, pomalidomide, reference compound]
  Hill slope, CRBN target engagement: 0.8
